One compound from ChEMBL document CHEMBL5537189 (J Med Chem, 2024) can be followed below.

By UniProt entry, the sequences of proteins in these tests, tags left out. Where a name states a change or a piece, a line headed by the entry shows the natural chain unless it says otherwise.
UniProt P10826, whole entry: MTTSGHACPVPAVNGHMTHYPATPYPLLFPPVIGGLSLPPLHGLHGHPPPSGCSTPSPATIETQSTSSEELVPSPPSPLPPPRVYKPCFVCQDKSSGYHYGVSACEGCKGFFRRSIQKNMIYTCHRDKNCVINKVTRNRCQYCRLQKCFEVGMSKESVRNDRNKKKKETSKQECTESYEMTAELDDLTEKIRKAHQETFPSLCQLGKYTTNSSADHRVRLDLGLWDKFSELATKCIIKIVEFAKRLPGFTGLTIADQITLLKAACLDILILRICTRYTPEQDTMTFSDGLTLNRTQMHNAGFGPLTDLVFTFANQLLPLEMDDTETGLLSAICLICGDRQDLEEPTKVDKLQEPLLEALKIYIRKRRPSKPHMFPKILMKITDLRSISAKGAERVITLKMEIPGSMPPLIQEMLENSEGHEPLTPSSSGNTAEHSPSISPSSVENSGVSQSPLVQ
UniProt P10276, whole entry: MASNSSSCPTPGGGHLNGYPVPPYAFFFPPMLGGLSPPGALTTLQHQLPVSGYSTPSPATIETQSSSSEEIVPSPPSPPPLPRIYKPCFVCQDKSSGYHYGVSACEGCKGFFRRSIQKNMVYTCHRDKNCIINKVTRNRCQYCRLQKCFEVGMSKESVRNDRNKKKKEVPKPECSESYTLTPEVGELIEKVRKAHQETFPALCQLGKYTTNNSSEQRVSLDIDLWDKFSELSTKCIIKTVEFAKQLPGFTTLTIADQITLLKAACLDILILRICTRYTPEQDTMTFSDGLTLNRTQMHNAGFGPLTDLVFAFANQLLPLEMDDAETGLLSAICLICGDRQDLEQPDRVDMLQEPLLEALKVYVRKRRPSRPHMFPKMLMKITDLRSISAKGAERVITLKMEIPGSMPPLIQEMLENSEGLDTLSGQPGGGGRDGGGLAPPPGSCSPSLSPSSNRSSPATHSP
UniProt Q13133, whole entry: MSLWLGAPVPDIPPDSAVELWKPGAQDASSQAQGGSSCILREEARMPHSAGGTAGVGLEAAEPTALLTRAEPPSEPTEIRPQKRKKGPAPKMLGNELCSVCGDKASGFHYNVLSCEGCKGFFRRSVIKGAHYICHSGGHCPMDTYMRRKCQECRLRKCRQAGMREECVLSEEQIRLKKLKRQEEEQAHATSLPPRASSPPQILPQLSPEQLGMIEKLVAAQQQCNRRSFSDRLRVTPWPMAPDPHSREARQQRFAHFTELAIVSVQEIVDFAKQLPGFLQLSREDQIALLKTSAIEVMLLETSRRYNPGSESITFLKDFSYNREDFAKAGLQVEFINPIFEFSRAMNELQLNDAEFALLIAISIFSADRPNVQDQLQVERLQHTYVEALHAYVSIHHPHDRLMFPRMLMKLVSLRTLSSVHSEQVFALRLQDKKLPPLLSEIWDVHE
UniProt P55055, whole entry: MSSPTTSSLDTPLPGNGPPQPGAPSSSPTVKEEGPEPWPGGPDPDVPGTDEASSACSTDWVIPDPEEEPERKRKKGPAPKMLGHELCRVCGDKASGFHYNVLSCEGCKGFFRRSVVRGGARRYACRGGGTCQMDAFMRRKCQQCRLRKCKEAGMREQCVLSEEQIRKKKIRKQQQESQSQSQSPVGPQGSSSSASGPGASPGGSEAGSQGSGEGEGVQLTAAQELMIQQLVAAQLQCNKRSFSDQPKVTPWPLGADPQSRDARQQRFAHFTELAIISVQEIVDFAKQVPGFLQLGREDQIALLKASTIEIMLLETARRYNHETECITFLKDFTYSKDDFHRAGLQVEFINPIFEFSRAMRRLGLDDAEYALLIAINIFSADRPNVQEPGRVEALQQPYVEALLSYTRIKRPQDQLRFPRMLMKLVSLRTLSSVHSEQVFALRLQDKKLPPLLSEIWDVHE
UniProt P13631, whole entry: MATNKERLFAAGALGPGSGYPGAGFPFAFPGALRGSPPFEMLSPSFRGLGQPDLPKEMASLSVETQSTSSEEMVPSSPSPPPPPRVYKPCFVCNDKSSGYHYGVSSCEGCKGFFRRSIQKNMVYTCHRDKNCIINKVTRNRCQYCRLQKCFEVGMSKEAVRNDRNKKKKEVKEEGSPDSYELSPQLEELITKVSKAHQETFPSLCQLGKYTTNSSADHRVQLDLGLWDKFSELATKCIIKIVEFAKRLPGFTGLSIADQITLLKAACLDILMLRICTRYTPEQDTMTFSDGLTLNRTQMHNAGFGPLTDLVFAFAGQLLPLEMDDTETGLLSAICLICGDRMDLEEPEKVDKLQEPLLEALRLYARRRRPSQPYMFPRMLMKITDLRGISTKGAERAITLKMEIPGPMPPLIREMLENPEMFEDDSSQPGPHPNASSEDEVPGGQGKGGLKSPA
UniProt P37231: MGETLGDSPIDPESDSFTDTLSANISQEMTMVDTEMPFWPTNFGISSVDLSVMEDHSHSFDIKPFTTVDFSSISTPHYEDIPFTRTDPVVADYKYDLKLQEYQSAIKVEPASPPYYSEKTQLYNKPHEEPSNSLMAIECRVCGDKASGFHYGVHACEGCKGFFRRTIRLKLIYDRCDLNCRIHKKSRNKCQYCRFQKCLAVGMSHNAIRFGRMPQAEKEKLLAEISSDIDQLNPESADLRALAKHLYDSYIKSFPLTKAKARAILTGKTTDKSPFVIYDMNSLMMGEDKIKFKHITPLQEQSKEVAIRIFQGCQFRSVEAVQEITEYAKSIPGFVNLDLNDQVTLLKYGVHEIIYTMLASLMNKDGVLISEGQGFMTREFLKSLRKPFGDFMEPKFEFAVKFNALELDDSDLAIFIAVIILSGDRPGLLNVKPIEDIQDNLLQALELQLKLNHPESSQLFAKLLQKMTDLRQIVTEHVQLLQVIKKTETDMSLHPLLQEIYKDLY

Activity calls are given as the source filed them. The rule behind the calls is not given here.

The target in data set [1] is T1, Bile acid receptor (Homo sapiens) (UniProt Q96RI1).
T1 sequence (whole entry): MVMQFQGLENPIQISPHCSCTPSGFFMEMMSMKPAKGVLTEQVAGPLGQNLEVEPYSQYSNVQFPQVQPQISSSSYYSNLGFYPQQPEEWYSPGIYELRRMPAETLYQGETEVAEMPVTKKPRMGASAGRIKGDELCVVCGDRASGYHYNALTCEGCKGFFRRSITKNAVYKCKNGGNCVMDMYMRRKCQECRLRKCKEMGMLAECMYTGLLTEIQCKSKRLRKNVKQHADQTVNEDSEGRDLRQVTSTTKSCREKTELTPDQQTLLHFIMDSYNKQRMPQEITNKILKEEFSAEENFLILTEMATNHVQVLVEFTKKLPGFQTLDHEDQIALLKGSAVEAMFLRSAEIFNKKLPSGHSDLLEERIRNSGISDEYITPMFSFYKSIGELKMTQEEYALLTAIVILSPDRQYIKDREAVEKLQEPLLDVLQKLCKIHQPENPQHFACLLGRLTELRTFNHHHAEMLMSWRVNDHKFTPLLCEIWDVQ
Nature of the data set: Partial agonist activity NR1H4 (unknown origin) assessed as mean relative activation at 1 uM relative to reference agonist.

In data set [2] the target is Retinoic acid receptor beta (Homo sapiens) (UniProt P10826). Description: Partial agonist activity NR1B2 (unknown origin) assessed as mean relative activation at 1 uM relative to reference agonist.
In data set [3] the target is T2, Thyroid hormone receptor beta (Homo sapiens) (UniProt P10828).
T2 sequence (whole entry): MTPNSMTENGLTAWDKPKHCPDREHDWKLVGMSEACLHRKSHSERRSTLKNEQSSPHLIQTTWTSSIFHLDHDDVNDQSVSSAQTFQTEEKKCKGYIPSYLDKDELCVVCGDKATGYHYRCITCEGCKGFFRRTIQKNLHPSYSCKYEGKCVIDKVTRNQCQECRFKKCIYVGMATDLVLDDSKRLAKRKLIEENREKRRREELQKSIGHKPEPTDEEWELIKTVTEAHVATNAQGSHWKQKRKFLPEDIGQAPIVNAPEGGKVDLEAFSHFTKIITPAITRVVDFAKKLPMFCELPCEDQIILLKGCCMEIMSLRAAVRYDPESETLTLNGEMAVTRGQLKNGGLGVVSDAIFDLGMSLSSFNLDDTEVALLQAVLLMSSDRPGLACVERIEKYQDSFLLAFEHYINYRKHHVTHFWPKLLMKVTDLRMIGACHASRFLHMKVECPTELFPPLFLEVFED
Nature of the data set: Partial agonist activity NR1A2 (unknown origin) assessed as mean relative activation at 1 uM relative to reference agonist.

Data set [4] deals with T3, Nuclear receptor subfamily 2 group C member 1 (Homo sapiens) (UniProt P13056).
T3 sequence (whole entry): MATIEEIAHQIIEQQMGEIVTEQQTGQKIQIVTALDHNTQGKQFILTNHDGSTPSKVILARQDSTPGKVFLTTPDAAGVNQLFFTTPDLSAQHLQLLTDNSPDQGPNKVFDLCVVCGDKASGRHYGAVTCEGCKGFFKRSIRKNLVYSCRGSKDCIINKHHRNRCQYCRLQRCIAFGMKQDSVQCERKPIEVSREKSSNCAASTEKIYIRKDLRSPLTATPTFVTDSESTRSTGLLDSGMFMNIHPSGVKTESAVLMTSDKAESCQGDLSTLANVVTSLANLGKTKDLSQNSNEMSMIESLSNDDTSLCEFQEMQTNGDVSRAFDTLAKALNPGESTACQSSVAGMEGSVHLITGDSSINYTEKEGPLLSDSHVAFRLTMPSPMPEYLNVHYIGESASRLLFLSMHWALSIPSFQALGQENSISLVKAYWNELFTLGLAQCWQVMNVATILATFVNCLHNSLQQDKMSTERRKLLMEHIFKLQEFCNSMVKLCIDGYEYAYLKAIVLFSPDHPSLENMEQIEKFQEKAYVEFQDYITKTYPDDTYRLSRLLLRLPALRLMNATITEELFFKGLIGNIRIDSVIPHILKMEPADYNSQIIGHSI
Nature of the data set: Partial agonist activity NR1C1 (unknown origin) assessed as mean relative activation at 1 uM relative to reference agonist.

The target of data set [5] is T4, Peroxisome proliferator-activated receptor delta (Homo sapiens) (UniProt Q03181).
T4 sequence (whole entry): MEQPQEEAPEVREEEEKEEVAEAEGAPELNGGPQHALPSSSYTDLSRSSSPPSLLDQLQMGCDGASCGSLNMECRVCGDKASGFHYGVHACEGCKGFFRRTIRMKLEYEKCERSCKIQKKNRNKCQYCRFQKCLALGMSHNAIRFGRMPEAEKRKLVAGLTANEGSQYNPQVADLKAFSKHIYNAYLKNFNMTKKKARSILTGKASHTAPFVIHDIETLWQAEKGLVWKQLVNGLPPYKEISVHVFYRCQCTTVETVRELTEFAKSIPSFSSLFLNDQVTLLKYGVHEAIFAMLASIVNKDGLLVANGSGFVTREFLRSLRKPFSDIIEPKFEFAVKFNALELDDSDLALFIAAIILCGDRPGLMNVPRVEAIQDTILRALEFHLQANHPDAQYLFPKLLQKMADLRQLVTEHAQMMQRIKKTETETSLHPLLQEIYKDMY
Description: Partial agonist activity NR1C2 (unknown origin) assessed as mean relative activation at 1 uM relative to reference agonist.

Data set [6] addresses Retinoic acid receptor alpha (Homo sapiens) (UniProt P10276). Description: Partial agonist activity NR1B1 (unknown origin) assessed as mean relative activation at 1 uM relative to reference agonist.
Data set [7] has as its target T5, Retinoic acid receptor RXR-gamma (Homo sapiens) (UniProt P48443).
T5 sequence (whole entry): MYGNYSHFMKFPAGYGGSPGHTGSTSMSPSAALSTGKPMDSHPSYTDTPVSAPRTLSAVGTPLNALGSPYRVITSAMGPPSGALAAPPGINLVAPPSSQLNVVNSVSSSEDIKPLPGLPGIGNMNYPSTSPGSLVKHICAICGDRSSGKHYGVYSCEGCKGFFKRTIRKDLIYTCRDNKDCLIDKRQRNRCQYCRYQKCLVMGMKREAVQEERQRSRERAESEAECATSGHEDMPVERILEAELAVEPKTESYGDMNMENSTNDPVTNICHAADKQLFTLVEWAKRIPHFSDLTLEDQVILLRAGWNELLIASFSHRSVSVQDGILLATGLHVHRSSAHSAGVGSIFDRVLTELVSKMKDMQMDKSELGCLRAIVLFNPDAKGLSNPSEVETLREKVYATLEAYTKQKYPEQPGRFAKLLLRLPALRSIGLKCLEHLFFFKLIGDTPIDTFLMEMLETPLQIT
Description: Partial agonist activity NR2B3 (unknown origin) assessed as mean relative activation at 1 uM relative to reference agonist.

For data set [8], the target named is Oxysterols receptor LXR-alpha (Homo sapiens) (UniProt Q13133). Description: Partial agonist activity NR1H3 (unknown origin) assessed as mean relative activation at 1 uM relative to reference agonist.
The subject of the next data set is COS-7. Nature of the data set: Cytotoxicity against African green monkey COS7 cells at upto 100 uM by CCK-8 method. The data set is classed as toxicity, cell-based. The following applies: chlorocebus aethiops, cos-7, 100 µM.
Data set [9] deals with Oxysterols receptor LXR-beta (Homo sapiens) (UniProt P55055). Description: Partial agonist activity NR1H2 (unknown origin) assessed as mean relative activation at 1 uM relative to reference agonist.
The target of data set [10] is T6, Retinoic acid receptor RXR-alpha (Homo sapiens) (UniProt P19793).
T6 sequence (whole entry): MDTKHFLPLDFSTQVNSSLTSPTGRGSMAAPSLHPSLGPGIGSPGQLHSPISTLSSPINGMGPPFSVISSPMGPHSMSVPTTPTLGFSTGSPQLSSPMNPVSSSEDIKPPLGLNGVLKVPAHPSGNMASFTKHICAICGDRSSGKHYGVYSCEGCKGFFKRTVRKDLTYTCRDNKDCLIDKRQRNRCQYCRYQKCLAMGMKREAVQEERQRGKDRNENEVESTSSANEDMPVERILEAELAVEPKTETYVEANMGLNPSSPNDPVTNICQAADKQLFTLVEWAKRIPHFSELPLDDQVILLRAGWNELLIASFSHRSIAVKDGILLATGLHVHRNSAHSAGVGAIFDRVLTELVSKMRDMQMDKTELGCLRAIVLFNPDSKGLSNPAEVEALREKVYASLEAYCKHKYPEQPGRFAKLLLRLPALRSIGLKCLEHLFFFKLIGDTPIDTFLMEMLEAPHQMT
Description: Partial agonist activity NR2B1 (unknown origin) assessed as mean relative activation at 1 uM relative to reference agonist.

Data set [11] has as its target T7, Thyroid hormone receptor alpha (Homo sapiens) (UniProt P10827).
T7 sequence (whole entry): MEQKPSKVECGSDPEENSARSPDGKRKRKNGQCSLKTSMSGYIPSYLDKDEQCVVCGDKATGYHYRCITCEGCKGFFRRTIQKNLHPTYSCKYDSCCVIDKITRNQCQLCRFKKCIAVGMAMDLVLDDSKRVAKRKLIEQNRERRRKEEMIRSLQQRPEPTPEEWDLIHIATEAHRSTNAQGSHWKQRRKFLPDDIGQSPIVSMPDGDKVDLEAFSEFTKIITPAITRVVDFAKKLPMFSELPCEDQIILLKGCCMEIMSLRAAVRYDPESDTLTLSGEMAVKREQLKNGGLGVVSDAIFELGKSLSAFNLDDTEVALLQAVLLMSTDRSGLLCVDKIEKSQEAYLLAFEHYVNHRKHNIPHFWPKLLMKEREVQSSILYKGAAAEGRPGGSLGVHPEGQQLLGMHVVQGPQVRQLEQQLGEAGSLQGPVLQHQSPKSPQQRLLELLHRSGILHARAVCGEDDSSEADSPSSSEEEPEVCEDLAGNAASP
Description: Partial agonist activity NR1A1 (unknown origin) assessed as mean relative activation at 1 uM relative to reference agonist.

Data set [12] has as its target Retinoic acid receptor gamma (Homo sapiens) (UniProt P13631). Nature of the data set: Partial agonist activity NR1B3 (unknown origin) assessed as mean relative activation at 1 uM relative to reference agonist.
For data set [13], the target named is Peroxisome proliferator-activated receptor gamma (Homo sapiens) (UniProt P37231). Description: Partial agonist activity NR1C3 (unknown origin) assessed as mean relative activation at 1 uM relative to reference agonist.

`CC1(C)CCN(c2cc(Cl)nc(OCCC(=O)O)n2)c2ccccc21`: the outcome in data set [1], in data set [2], in data set [3], in data set [4], in data set [5] and in data set [6] was inactive. Besides, the result in data set [7], in data set [8], in data set [9], in [10], in data set [11] and in data set [12] was inactive. Besides, the result in [13] was inactive. In the data set with COS-7, the Activity entry is given as “Non-Toxic”.
